# AlphaSeq binding of Ab-14 light chain variants to a spike HR2 peptide

All variants were tested on one target, the spike HR2 peptide PDVDLGDISGINAS (SARS-CoV-2).

Parent: Ab-14, a human scFv built as VH, a 15-residue (Gly4Ser)3 linker, VL. Only the CDRs of the light chain vary.
VH: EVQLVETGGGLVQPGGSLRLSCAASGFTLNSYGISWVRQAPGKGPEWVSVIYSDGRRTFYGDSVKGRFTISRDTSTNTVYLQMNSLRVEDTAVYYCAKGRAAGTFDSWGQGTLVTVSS
VL: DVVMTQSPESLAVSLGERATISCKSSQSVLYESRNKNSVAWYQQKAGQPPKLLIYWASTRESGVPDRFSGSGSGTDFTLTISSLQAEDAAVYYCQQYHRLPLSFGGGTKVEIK

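Variants in AAYL50 differ from the parent at up to three CDR positions; double and triple changes were sampled at random. AlphaSeq pools MATa yeast showing the antibodies with MATalpha yeast showing the peptide. Pairs that bind mate more often; barcode pairs of the diploids are counted by sequencing. The ratio of observed to expected reads was calibrated, replicate by replicate, on BCL2-family standards whose Kd was known from biolayer interferometry. Each pool was mated in three replicate cultures.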

Substitutions are numbered in sequence along the VL above, starting at 1 (not Kabat). Kd is apparent (estimated from mating counts) and averaged on the log scale over replicates with a signal. Smaller is tighter. Where no diploid with the target was found in any replicate, the entry reads "no signal": below detection, most likely a poor binder, though not proof of it.

The variant S33C+S62Y+Q95W gave 41 nM (3 of 3 replicates).
The variant V29W+Q96D gave 4.0 nM (3 of 3 replicates).
The variant Q27D+S28M+S38P gave 16 nM (3 of 3 replicates).
The variant S25D+N35Y+L100Y gave 2.2 µM (2 of 3 replicates).
The variant Q27N+E32M+R99V gave 46 nM (3 of 3 replicates).
The variant Q27Y+Y31T gave 3.6 nM (3 of 3 replicates).
The variant R34W+S62F gave 7.8 nM (3 of 3 replicates).
The variant S58G+Y97L gave 2.7 µM (2 of 3 replicates).
The variant S38E+S58A+Q96A gave 110 µM (3 of 3 replicates).
The variant Q27L+Y97T+R99L gave 14 nM (3 of 3 replicates).
The variant N35P+N37H+A40P gave no signal (0 of 3 replicates).
The variant S26H+R60N+S62H gave 6.1 µM (3 of 3 replicates).
The variant Y31T+E61Q+Q96V gave no signal (0 of 3 replicates).
The variant N37V+S38F+A57Q gave no signal (0 of 3 replicates).
The variant K24V+Q27Y+N35W gave no signal (0 of 3 replicates).
The variant Q96F+P101W gave no signal (0 of 3 replicates).
The variant Y31G+E32W+Q95C gave 50 µM (3 of 3 replicates).
The variant S38R+H98S gave 43 nM (2 of 3 replicates).
The variant N37C+E61T+H98E gave 480 nM (1 of 3 replicates).
The variant K24R+Q96Y+H98Q gave 22 nM (3 of 3 replicates).
The variant S26I+V39R+E61H gave 22 µM (2 of 3 replicates).
The variant V29P+N37G+H98A gave 34 nM (3 of 3 replicates).
The variant R60S+E61W+Q96H gave 4.3 µM (2 of 3 replicates).
The variant S26T+S58L+E61S gave 1.7 mM (1 of 3 replicates).
The variant S28Q+V39I+L102F gave 11 nM (3 of 3 replicates).
The variant N35Q+S38A+A57V gave 20 nM (3 of 3 replicates).
The variant V29F+N35D+Q95P gave no signal (0 of 3 replicates).
The variant S28H+E32N+A40N gave 22 µM (2 of 3 replicates).
The variant Q27Y+A40H gave 4.8 µM (1 of 3 replicates).
The variant S28L+H98Q+P101V gave no signal (0 of 3 replicates).
The variant Q27M+V29N+W56Q gave 6.0 nM (3 of 3 replicates).
The variant V39I+Q96E+S103Y gave 19 nM (3 of 3 replicates).
The variant R34L+A57V+Q96R gave 3.1 µM (3 of 3 replicates).
The variant K24M+S28Q+N37R gave 1.6 µM (3 of 3 replicates).
The variant S28H+L30D+Y97L gave 6.8 nM (3 of 3 replicates).
The variant V39I+L102T gave 1.5 µM (2 of 3 replicates).
The variant E32Y+L102V+S103Y gave no signal (0 of 3 replicates).
The variant R34Y+S38N+V39E gave 5.5 µM (2 of 3 replicates).
The variant T59R+Y97R+P101L gave 4.4 µM (2 of 3 replicates).

The first 5 variants above that were never detected:

changes,Kd,seen in
N35P+N37H+A40P,no signal,0 of 3
Y31T+E61Q+Q96V,no signal,0 of 3
N37V+S38F+A57Q,no signal,0 of 3
K24V+Q27Y+N35W,no signal,0 of 3
Q96F+P101W,no signal,0 of 3

Nonspecific signal, from three strains lacking the peptide, appeared in 18% of pairings of library AAYL50, centred on 15 µM (5% of these signals below 970 nM); values are not corrected for it. Parent in this assay: reference entry 4.4 nM, copy in this library 48 nM.

Reference: Engelhart et al. 2022, doi:10.1038/s41597-022-01779-4. File: FLAb, binding data.